The values below are quoted from earlier work in article PMC6263254, “Solid-Phase Synthesis of Arylpiperazine Derivatives and Implementation of the Distributed Drug Discovery (D3) Project in the Search for CNS Agents” (Molecules, 2011).

Sequences of proteins named here, by UniProt entry; tags and fusion partners are left off.
UniProt P14842, whole entry: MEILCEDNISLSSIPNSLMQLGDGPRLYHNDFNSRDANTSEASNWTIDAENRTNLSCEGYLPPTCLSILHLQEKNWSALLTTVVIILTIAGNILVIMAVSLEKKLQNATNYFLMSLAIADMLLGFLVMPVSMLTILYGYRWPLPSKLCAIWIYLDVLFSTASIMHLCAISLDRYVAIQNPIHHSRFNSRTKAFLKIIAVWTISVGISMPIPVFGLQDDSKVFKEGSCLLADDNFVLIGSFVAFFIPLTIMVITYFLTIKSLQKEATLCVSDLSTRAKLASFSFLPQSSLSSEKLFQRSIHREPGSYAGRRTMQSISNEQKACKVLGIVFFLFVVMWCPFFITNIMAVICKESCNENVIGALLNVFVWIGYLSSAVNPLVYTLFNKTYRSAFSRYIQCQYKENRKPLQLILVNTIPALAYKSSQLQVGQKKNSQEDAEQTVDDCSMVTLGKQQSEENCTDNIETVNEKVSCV

The target of this data set is native serotonin 5-HT2A receptors (Rattus norvegicus, UniProt P14842). The conditions noted are these: read-out: Ki 5-HT2A; historical data; ref [4]; cited from earlier work.

The Ki is a dissociation constant, usually derived from enzyme kinetics or from competition with a known ligand. Turning to `O=C(N[C@H]1CC(=O)N(CCCCN2CCN(c3cccc(Cl)c3)CC2)C1=O)C1CCCCC1`, the Ki is 6.5 nM.
